Biological target: Human mTOR (FLAG-TOR) (Homo sapiens, UniProt P42345)
Experiment: mTOR kinase assay (DELFIA format, purified enzyme)
Format: biochemical

4-{[(4-{4-morpholin-4-yl-6-[(3S)-tetrahydrofuran-3-yloxy]-1,3,5-triazin-2-yl}phenyl)carbamoyl]amino}-N-(2-pyrrolidin-1-ylethyl)benzamide [Example 521]
IC50: 0.3 nM

Source: patent US20090304692A1, “TRIAZINE COMPOUNDS AS PI3 KINASE AND MTOR INHIBITORS” (Wyeth, priority 2008, published 2009)
